# Test results from publication PMC12758957 (Thrombosis and Haemostasis, 2025).
# Assays:
# Assay type in all cases: biochemical
# [1] = biological target: prothrombinase-activated prothrombin-KL3 (Homo sapiens, UniProt P00734)
# Procedure: (§1) Prothrombin variants were activated to thrombin by prothrombinase immediately prior to analyses. Reaction mixtures of prothrombin variant (1 μM) and preassembled prothrombinase (2 nM FXa, 2 nM FV-810, and 50 μM phospholipid TGT, final concentrations) were incubated for 30 minutes at 25°C in assay buffer, upon which the reaction was quenched in dilution buffer supplemented with 50 mM EDTA.
# [2] = biological target: prothrombin-I174F (Homo sapiens, UniProt P00734, I542F); test: Thrombin generation in supplemented prothrombin-depleted plasma, inhibition by direct thrombin inhibitors; conditions: prothrombin-depleted plasma + 180 µg/mL prothrombin-I174F; 37°C; read-out: IC50, thrombin peak height
# [3] = biological target: prothrombinase-activated wild-type prothrombin (Homo sapiens, UniProt P00734); test: Inhibition of pNAPEP-0238 peptidyl substrate conversion in a purified system
# Procedure: as §1
# [4] = biological target: prothrombinase-activated prothrombin-I174A (Homo sapiens, UniProt P00734, I542A); test: as above
# Procedure: as §1
# [5] = biological target: prothrombinase-activated prothrombin-I174F (Homo sapiens, UniProt P00734, I542F); test: as above
# Procedure: as §1
# [6] = biological target: prothrombin-I174A (Homo sapiens, UniProt P00734, I542A); test: Thrombin generation in supplemented prothrombin-depleted plasma, inhibition by direct thrombin inhibitors; conditions: prothrombin-depleted plasma + 180 µg/mL prothrombin-I174A; 37°C; read-out: IC50, thrombin peak height
# [7] = biological target: wild-type prothrombin (Homo sapiens, UniProt P00734); test: Thrombin generation (calibrated automated thrombography) in supplemented prothrombin-depleted plasma, inhibition by direct thrombin inhibitors
structure (smiles),measurement,setting,value
CC1CNc2c(cccc2S(=O)(=O)N[C@@H](CCCNC(=N)N)C(=O)N2CC[C@@H](C)C[C@@H]2C(=O)O)C1 (stereo partly drawn) [Argatroban],Ki,"[1]; KL3, Cheng-Prusoff equation",17 nM
same,IC50,"[1]; read-out: IC50, pNAPEP-0238 conversion, 5 nM prothrombinase-activated KL3, 50 μM pNAPEP-0238",29 ± 4 nM
same,IC50,[2],86 ± 11 nM
same,IC50,"[3]; 5 nM prothrombinase-activated WT, 50 μM pNAPEP-0238",8 ± 2 nM
same,Ki,"[3]; WT, Cheng-Prusoff equation",3 nM
same,IC50,"[4]; 5 nM prothrombinase-activated I174A, 50 μM pNAPEP-0238",30 ± 4 nM
same,Ki,"[4]; I174A, Cheng-Prusoff equation",13 nM
same,IC50,"[5]; 5 nM prothrombinase-activated I174F, 50 μM pNAPEP-0238",26 ± 3 nM
same,Ki,"[5]; I174F, Cheng-Prusoff equation",13 nM
same,IC50,[6],76 ± 9 nM
same,IC50,"[7]; prothrombin-depleted plasma + 180 µg/mL wild-type prothrombin, peak height normalized to no inhibitor, 37°C, read-out: IC50, thrombin peak height",69 ± 7 nM
same,IC50,"[7]; prothrombin-depleted plasma supplemented with wild-type prothrombin, read-out: half-maximum inhibition of thrombin peak",70 nM

# Where two headings read alike, the source gives them in different places.
